System: HCT-116 cells
Assay: MTT assay of cancer cell viability
Conditions: 48 hours
Method: CANCER CELL TREATMENTS: Human colorectal carcinoma cells (HCT-116) cells were grown according to a method described in Khan, F. A.; Akhtar, S.; Almohazey, D.; Alomari, M.; Almofty, S. A.; Eliassari, A. “Fluorescent magnetic submicronic polymer (FMSP) nanoparticles induce cell death in human colorectal carcinoma cells” Artif Artif. Cells, Nanomed., Biotechnol. 2018, (doi: 10.1080/21691401.2018.1491476). HCT-116 cells were grown in Dulbecco Modified Eagle Medium (DMEM), 10% fetal bovine serum, L-glutamine, selenium chloride, penicillin, and streptomycin. The cells were cultured in a CO2 incubator (Heracell 150i, Thermo-scientific, USA) at 37° C. under 5% CO2 for 48 to 72 hours. Confluenced cells were seeded into 96-well cell plates and, once the cells became 80% confluenced, the cancer cells were treated with different concentrations ([…]) of Conj. 1, Conj. 2, Conj. 3, Conj. 4, Conj. 5 respectively. […] Each sample was taken in triplicate to obtain a statistical analysis.
CANCER CELLS VIABILITY BY MTT ASSAY: To examine effect of Conj. 1, Conj. 2, Conj. 3, Conj. 4, Conj. 5 on cancer cells, a 3-(4,5-dimethylthiazol-2-yl)-2,5-diphenyltetrazolium bromide (MTT) assay was conducted on the cells. The cancer cells were seeded at 6×10^4 cells/mL concentration in 96-well culture plates containing DMEM, 10% Fetal bovine serum, penicillin, and streptomycin and were incubated in CO2 incubator until the cells were 80% confluenced. The cancer cells were then treated with Conj. 1, Conj. 2, Conj. 3, Conj. 4, Conj. 5 at concentrations of 1.3, 3.26, and 6.5 mg/mL, whereby no conjugate was added in the control groups. A 5.0 mg/mL MTT solution was added into each well, and the cells were again incubated for 4 hours in the CO2 incubator and finally media was changed with the addition of DMSO. The samples were then measured using an ELISA plate reader (Biotek Instruments, USA) at wavelength 570 nm.
The following formula was used to calculate percentage of cell viability: % of Cell viability=[Optical density (O.D) of Conj. 1, Conj. 2, Conj. 3, Conj. […]
1, Conj. […] 5 treated groups were calculated. […]

SiO2-3GPS-Imi [Conj. 5]
cancer cell viability (% of the control) (HCT-116, 1.3 mg/mL): 71.17% | cancer cell viability (% of the control) (HCT-116, 3.26 mg/mL): 62.22% | cancer cell viability (% of the control) (HCT-116, 6.5 mg/mL): 43.28%

From patent US11738091B2, “Method for terminating cancer cells with an azole-based compound” (Imam Abdulrahman Bin Faisal University, priority 2019, dated 2023)
